Assay [1] addresses T1, Beta-2 adrenergic receptor (Cavia porcellus, UniProt Q8K4Z4). In words: Agonist activity at adrenergic beta2 receptor in Hartley guinea pig tracheal ring assessed as bronchorelaxation activity against carbachol-induced contraction. The format is functional, tissue-based, Trachea.
Assay [2] has as its target T1, Beta-2 adrenergic receptor. The experiment in a line: Agonist activity at adrenergic beta2 receptor in Hartley guinea pig tracheal ring assessed as bronchorelaxation activity against histamine-induced contraction. Type of assay: functional, tissue-based, Trachea.
For assay [3], the target named is T1, Beta-2 adrenergic receptor. The experiment in a line: Binding affinity to adrenergic beta2 receptor in Hartley guinea pig tracheal ring.

Chains of the proteins cited; added tags and fusions are not shown.
UniProt Q8K4Z4, whole entry: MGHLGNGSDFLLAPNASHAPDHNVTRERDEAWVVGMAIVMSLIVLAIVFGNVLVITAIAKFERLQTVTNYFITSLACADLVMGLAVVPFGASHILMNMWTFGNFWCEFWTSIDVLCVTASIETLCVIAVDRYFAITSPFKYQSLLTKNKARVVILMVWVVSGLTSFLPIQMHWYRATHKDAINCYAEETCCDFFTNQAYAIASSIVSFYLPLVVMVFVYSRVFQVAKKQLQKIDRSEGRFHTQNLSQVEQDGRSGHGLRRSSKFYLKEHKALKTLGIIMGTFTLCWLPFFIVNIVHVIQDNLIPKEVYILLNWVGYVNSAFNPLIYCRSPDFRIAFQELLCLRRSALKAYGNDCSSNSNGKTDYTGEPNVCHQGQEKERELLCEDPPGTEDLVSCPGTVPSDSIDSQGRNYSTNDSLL

In the case of `CC(C)(C)NCC(O)c1ccc(O)c(CO)c1` (stereo not drawn) [ALBUTEROL], the concentration giving a half-maximal response (EC50) (usually the concentration needed to bring the measured effect to its halfway point) came out at 268 nM in assay [1] and 0.454 nM in assay [2]. Besides, the equilibrium dissociation constant (Kd) – broadly, a measure of binding affinity in units of concentration – in assay [3] came out at 1160 nM.

The values above are taken from ChEMBL document CHEMBL1152888, “Synthesis, pharmacological and in silico evaluation of 1-(4-di-hydroxy-3,5-dioxa-4-borabicyclo[4.4.0]deca-7,9,11-trien-9-yl)-2-(tert-butylamino)ethanol, a compound designed to act as a beta2 adrenoceptor agonist” (Eur J Med Chem, 2009).
